Values quoted from earlier work, collected in patent publication US20240351966A1, “CLASS OF ALKYLPHENOL COMPOUNDS AND PREPARATION METHOD THEREFOR” (Shanghai Institute of Materia Medica, Chinese Academy of …, priority 2021, published 2024).

Amino acid sequences for entries named in this document (tags omitted).
UniProt O94768, whole entry: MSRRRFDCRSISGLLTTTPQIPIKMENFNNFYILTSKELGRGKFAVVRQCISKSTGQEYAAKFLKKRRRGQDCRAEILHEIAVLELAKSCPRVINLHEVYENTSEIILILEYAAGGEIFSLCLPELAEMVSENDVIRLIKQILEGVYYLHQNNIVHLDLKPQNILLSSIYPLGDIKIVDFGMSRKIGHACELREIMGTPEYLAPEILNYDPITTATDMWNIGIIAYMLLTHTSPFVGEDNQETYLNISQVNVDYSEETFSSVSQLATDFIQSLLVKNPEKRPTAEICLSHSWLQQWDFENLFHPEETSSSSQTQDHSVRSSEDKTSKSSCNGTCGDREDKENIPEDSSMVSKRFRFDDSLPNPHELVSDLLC

Biological target: DRAK2 (Homo sapiens (Human), UniProt O94768)
Conditions: read-out: IC50 on DRAK2; literature value; cited from earlier work

For `CCCCC(=O)Nc1ccc2c(c1)/C(=C1/Nc3ccccc3/C1=N\O)C(=O)N2`, the IC50 is given as 3 nM.
